molecular target: CDK-2 (Homo sapiens, UniProt P24941); assay: Fluorescence polarization displacement assay (inhibitory effectiveness toward CDK-2); conditions: IC50, inhibitory effectiveness toward CDK-2

| Compound | IC50 [nM] |
| --- | --- |
| COC[C@H](Cc1ccc(O)cc1)NC(=O)c1cc(NS(=O)(=O)C(C)(C)C)c2cc(-c3cccc(Cn4cccn4)c3)ccc2n1 [Compound 29] | < 1000 |
| COC(=O)[C@H](Cc1ccc(O)cc1)NC(=O)c1cc(-c2nn[nH]n2)c2cc(-c3cccc(Cl)c3)ccc2n1 [Compound 94] | 1000 to 40000 |
| O=C(N[C@@H](Cc1ccc(O)cc1)Cn1cccn1)c1cc(C(=O)O)c2cc(/C=C/c3ccc(Cl)cc3)ccc2n1 [Compound 105] | 1000 to 40000 |
| COC(=O)[C@H](Cc1ccc(O)cc1)NC(=O)c1cc(C(=O)O)c2cc(-c3ccc(OCc4ccccc4)cc3)ccc2n1 [Compound 56] | < 1000 |
| COC(=O)[C@H](Cc1ccc(O)c(O)c1)NC(=O)c1cc(C(=O)O)c2cc(-c3cccc(C(F)(F)F)c3)ccc2n1 [Compound 10] | < 1000 |
| COC(=O)[C@H](Cc1ccc(O)cc1)NC(=O)c1cc(C(=O)O)c2cc(-c3ccccc3C)ccc2n1 [Compound 66] | < 1000 |
| COC[C@H](Cc1ccc(O)cc1)NC(=O)c1cc(NS(=O)(=O)c2cccs2)c2cc(-c3cccc(C(F)(F)F)c3)ccc2n1 [Compound 88] | < 1000 |
| COC(=O)c1ccc(-c2ccc3nc(C(=O)N[C@@H](Cc4ccc(O)cc4)C(=O)OC)cc(C(=O)O)c3c2)cc1 [Compound 101] | 1000 to 40000 |
| COC(=O)[C@H](Cc1ccc(O)cc1)NC(=O)c1cc(C(=O)O)c2cc(-c3ccc(C(C)(C)C)cc3)ccc2n1 [Compound 77] | < 1000 |
| COC[C@H](Cc1ccc(O)cc1)NC(=O)c1cc(C(=O)O)c2cc(-c3cccc(COc4ccccn4)c3)ccc2n1 [Compound 25] | < 1000 |
| CCS(=O)(=O)Nc1cc(C(=O)N[C@H](COC)Cc2ccc(O)cc2)nc2ccc(-c3cccc(C(F)(F)F)c3)cc12 [Compound 68] | < 1000 |
| COC(=O)C(Cc1ccc(O)cc1)NC(=O)c1cc(C(=O)N(C)C)c2cc(-c3cccs3)ccc2n1 (stereo not drawn) [Compound 1] | < 1000 |
| COC(=O)[C@H](Cc1ccc(O)cc1)NC(=O)c1cc(C(=O)O)c2cc(-c3cc(F)cc(F)c3)ccc2n1 [Compound 108] | 1000 to 40000 |
| COC[C@H](Cc1ccc(O)cc1)NC(=O)c1cc(C(=O)O)c2cc(CSc3ccc(C(F)(F)F)cc3)ccc2n1 [Compound 111] | 1000 to 40000 |
| COC[C@H](Cc1ccc(O)cc1)NC(=O)c1cc(C(=O)O)c2cc(-c3cccc(C[n+]4cccc(O)c4)c3)ccc2n1 [Compound 24] | < 1000 |

Other lines, results leading:

| IC50 [nM] | Compound |
| --- | --- |
| > 40000 | COC[C@H](Cc1ccc(O)cc1)NC(=O)c1cc(C(=O)O)c2cc(C#CCN)ccc2n1 [Compound 221] |
| 1000 to 40000 | CCC[C@H](NC(=O)c1cc(C(=O)N[C@@H](Cc2ccc(O)cc2)C(=O)OC)nc2ccc(OCc3ccccc3)cc12)C(=O)O [Compound 114] |
| > 40000 | COC(=O)[C@H](Cc1ccccc1F)NC(=O)c1cc(C(=O)O)c2cc(-c3cccc(C(F)(F)F)c3)ccc2n1 [Compound 167] |
| 1000 to 40000 | COC[C@H](Cc1ccc(O)cc1)NC(=O)c1cc(C(=O)O)c2cc(-c3cccc(CN4CCOCC4)c3)ccc2n1 [Compound 138] |
| 1000 to 40000 | COC[C@H](Cc1ccc(O)cc1)NC(=O)c1cc(C(=O)OC)c2cc(-c3cccc(C(F)(F)F)c3)ccc2n1 [Compound 144] |
| 1000 to 40000 | O=C(N[C@@H](Cc1ccc(O)cc1)Cn1ccnc1)c1cc(C(=O)O)c2cc(/C=C/c3ccc(Cl)cc3)ccc2n1 [Compound 118] |
| 1000 to 40000 | COC[C@H](Cc1ccc(O)cc1)NC(=O)c1cc(C(=O)O)c2cc(COc3cccc(OC(F)(F)F)c3)ccc2n1 [Compound 117] |
| > 40000 | CNCc1cccc(-c2ccc3nc(C(=O)N[C@H](COC)Cc4ccc(O)cc4)cc(C(=O)O)c3c2)c1 [Compound 195] |
| 1000 to 40000 | NC(=O)[C@H](Cc1ccc(O)cc1)NC(=O)c1cc(C(=O)O)c2cc(-c3cccs3)ccc2n1 [Compound 143] |
| > 40000 | COC(=O)[C@H](Cc1ccc(O)cc1)NC(=O)c1cc(C(=O)OCCN(C)C)c2cc(-c3cccs3)ccc2n1 [Compound 233] |
| 1000 to 40000 | COC[C@H](Cc1ccc(O)cc1)NC(=O)c1cc(C(=O)O)c2cc(-c3cccc(CO)c3)ccc2n1 [Compound 131] |
| > 40000 | COC(=O)[C@H](Cc1ccc(O)cc1)N(C)C(=O)c1cc(C(=O)O)c2cc(-c3cccc(C(F)(F)F)c3)ccc2n1 [Compound 168] |

Reference: patent US7511063B2, “High affinity quinoline-based kinase ligands” (Schering Corporation, priority 2006, dated 2009)
